Measured values as given in article PMC5906549, “Cathelicidin-Derived Antimicrobial Peptides Inhibit Zika Virus Through Direct Inactivation and Interferon Pathway” (Frontiers in Immunology, 2018).

Tested on: ZIKV strain MR766
Test: ZIKV RNA in astrocytes with recombinant IFN-α or with inhibition of type-I IFN signaling
Type: cell-based, Zika virus
Settings: human astrocytes; recombinant IFN-α2 at 1000 units/mL before ZIKV MOI 0.5; RNA at 24 h after infection
Protocol: Total mRNA was isolated with TRIzol Reagent (Thermo Fisher Scientific) and RNeasy Mini Kit (QIAGEN Inc., Valencia, CA, USA) following the manufacturer’s recommendations. Two real-time RT-PCR methods were used for the current studies. First, SYBR Green-based RT-PCR assay was used to determine intracellular ZIKV RNA in Vero cells. For this assay, reverse transcription was performed using Verso cDNA synthesis Kit (Thermo Fisher Scientific) and 1 µg of total RNA in a 15-µL final volume. The RT-PCR analyses were performed using 7.5-µL SYBR Green PCR Master Mix (Thermo Fisher Scientific) with 0.5-µL cDNA, 1.5-µL H2O, 5.5-µL oligonucleotide primer pairs at 10 µM. […] GG-3. PCR program: 1, 50°C for 2 min; 2, 95°C for 2 min; 3, 95°C for 15 s; 4, specific annealing temperature for 15 s; 5, 72°C for 1 min. Steps 2–4 were repeated 40 times. All samples were amplified in triplicate for analysis. Relative ZIKV RNA levels were determined and standardized with a GAPDH internal control using comparative ΔΔCT method ([35]). […] Relative ZIKV mRNA levels were determined and standardized with a GAPDH or 18-s rRNA endogenous control using comparative ΔΔCT method ([35]). […] Quantitative genomic RNA from ZIKV (NR-1838DQ, ATCC) was used as a standard to calculate viral copies.

IFN-α: recombinant human IFN-α, tested for ZIKV inhibition at 1000 units/mL
ZIKV infection (ZIKV RNA) after IFN-α treatment: significantly inhibited ZIKV infection
